Reference: patent US20250290916A1 (Antibody Analytics Limited, priority 2022, published 2025)

Assays:
CHO-K1 cells = test: Cytotoxicity on CHO-K1 cells, eFluor780 fixable viability dye, flow cytometry; type: cell-based; settings: increasing concentrations, 24 hours
Description: (§1) Before IAA was used as an expression inducer for the transduced cell lines, it was assessed for any cytotoxic effects on CHO-K1 and HEK293 cells. Cell viability in both HEK293 and CHO-K1 cells was measured by flow cytometry 24 hours post addition of IAA over the concentration range indicated.
(§2) HEK293 and CHO-K1 cells were treated with the indicated concentrations of IAA for 24 hours before being stained with eFluor780 fixable viability dye and analysed by flow cytometry.

HEK293 cells = test: Cytotoxicity on HEK293 cells, eFluor780 fixable viability dye, flow cytometry; type: cell-based; settings: increasing concentrations, 24 hours
Description: as §1, §2

S-(+)-abscisic acid [ABA]
cell viability (percentage of cells which do not take up the dye) (CHO-K1 cells): No decrease in cell viability was observed | cell viability (percentage of cells which do not take up the dye) (HEK293 cells): No decrease in cell viability was observed
